The source of these data is ChEMBL document CHEMBL3046915, “Synthesis and evaluation of -opioid receptor agonistic activity and antinociceptive effect of novel morphine analogues, 7-phenyl-6,14-endo-etheno-tetrahydrothebaine with substituted o-, m- and p-amino group” (2011).

By UniProt entry, the sequences of proteins in these tests, tags left out.
UniProt P41145, whole entry: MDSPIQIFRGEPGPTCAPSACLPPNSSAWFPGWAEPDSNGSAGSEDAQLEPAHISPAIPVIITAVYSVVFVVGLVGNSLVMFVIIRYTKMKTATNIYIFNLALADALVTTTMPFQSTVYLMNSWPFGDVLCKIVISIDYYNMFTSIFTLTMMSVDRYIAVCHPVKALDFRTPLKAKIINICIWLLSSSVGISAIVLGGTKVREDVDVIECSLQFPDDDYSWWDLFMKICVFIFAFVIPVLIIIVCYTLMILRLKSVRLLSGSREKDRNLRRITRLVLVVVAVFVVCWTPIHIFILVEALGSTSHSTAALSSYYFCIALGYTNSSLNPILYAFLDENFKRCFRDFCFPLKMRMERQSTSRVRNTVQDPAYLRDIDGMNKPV
UniProt P41144, whole entry: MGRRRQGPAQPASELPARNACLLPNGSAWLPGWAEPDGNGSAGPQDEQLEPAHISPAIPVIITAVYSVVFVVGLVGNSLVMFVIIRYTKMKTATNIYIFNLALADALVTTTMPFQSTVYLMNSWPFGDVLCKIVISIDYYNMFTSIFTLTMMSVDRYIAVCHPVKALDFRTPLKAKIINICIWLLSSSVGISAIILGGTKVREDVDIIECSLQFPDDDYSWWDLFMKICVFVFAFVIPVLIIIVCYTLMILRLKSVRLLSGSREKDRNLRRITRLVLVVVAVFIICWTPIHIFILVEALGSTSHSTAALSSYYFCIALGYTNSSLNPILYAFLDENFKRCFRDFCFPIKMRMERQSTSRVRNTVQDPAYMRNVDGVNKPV

Molecules are shown by their SMILES.

For test [1], the target named is Kappa-type opioid receptor (Homo sapiens, UniProt P41145). Nature of the test: Displacement of [3H]-diprenorphine from kappa opioid receptor (unknown origin) expressed in CHO cells after 30 min by liquid scintillation counting.
The target in test [2] is Kappa-type opioid receptor (Cavia porcellus, UniProt P41144). Nature of the test: Intrinsic activity at kappa opioid receptor in Oryctolagus cuniculus (rabbit) vas deferens assessed as inhibition of electrically evoked contraction after 15 min in presence of nor-BNI.

With `COc1ccc2c3c1O[C@H]1[C@@]4(OC)C=C[C@@]5(C[C@@H]4c4ccc(N)cc4)[C@@H](C2)N(C)CC[C@]315`, the Ki in test [1] turned out to be 7.89 µM. Also, the pA2 in test [2] came to 8.39.
Consider `COc1ccc2c3c1O[C@H]1[C@@]4(OC)C=C[C@@]5(C[C@@H]4c4cccc(N)c4)[C@@H](C2)N(C)CC[C@]315`, for which the affinity in test [1], expressed as Ki, was 16 µM.
Take `COc1ccc2c3c1O[C@H]1[C@@]4(OC)C=C[C@@]5(C[C@@H]4c4ccccc4N)[C@@H](C2)N(C)CC[C@]315`: affinity in test [1] was put at a Ki of 9.91 µM.
